Results: publication PMC11222147, “Host defence peptide plectasin targets bacterial cell wall precursor lipid II by a calcium-sensitive supramolecular mechanism” (Nature Microbiology, 2024)

The chains behind the UniProt entries cited, without tags or fusion partners. Where a name states a change or a piece, a line headed by the entry shows the natural chain unless it says otherwise.
UniProt Q53I06: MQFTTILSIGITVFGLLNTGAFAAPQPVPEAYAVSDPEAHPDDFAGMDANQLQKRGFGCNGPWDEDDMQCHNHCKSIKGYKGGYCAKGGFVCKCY

Target: plectasin (Pseudoplectania nigrella, UniProt Q53I06)
Assay: intrinsic tryptophan (W8) fluorescence titration
Conditions: neutral DOPC LUVs, 2 mol% lipid II, no bivalent ions (100 uM EDTA), 50 mM HEPES, 150 mM NaCl, pH 7.2, 20 °C

Substance: lipid II
- Kd: 155 nM
